Measurements taken from ChEMBL document CHEMBL1140260, “Synthesis and SAR of diazepine and thiazepine TACE and MMP inhibitors” (Bioorg Med Chem Lett, 2005).

Molecular target: T1, Interstitial collagenase (Homo sapiens, UniProt P03956)
T1 sequence (P03956 whole entry): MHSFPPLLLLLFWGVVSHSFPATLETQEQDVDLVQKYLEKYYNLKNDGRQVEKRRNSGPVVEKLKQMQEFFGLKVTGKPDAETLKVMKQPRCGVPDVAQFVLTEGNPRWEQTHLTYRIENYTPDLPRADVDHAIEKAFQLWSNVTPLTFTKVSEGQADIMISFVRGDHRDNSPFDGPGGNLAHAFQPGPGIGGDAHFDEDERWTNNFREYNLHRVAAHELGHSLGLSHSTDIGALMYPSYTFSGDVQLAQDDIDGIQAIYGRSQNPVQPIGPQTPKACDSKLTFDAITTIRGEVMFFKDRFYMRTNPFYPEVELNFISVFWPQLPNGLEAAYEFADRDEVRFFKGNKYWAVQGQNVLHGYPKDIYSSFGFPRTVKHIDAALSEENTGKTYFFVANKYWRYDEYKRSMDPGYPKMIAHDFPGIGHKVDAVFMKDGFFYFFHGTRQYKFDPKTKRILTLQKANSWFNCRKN
Assay: Inhibitory concentration against matrix metalloprotease-1 at 1 uM

| SMILES | IC50 [nM] |
| --- | --- |
| CC#CCOc1ccc(S(=O)(=O)N2CCCN(C(C)=O)CC2C(=O)NO)cc1 (configuration not stated) | 2120 |
| CC#CCOc1ccc(S(=O)(=O)N2CCCN(C(=O)c3cccs3)CC2C(=O)NO)cc1 (configuration not stated) | 645 |
